From patent publication US7355056B2, “Transfection agents” (Canji, Inc., priority 2003, dated 2008)

System: IFN responsive genes (2′,5′-OAS, MX1)
Experiment: RT-PCR expression of IFN responsive genes in rat bladder homogenates after IFN protein in a SYN3 formulation
Assay type: in vivo
Conditions: administered in a SYN3 formulation

Substance: Intron A: IFNα2b protein (Intron A)
- expression levels compared to those after administration of rAd-IFNα2b or rAd-IFNα2α1: somewhat inferior
- expression of the rat OAS and MX1 genes: increased
